BindingDB's records for 3746817

Protein sequences, listed by entry. Tags and fused reporters are not part of them. Residues count along the entry.
UniProt P22303, 32-614 limits assumed: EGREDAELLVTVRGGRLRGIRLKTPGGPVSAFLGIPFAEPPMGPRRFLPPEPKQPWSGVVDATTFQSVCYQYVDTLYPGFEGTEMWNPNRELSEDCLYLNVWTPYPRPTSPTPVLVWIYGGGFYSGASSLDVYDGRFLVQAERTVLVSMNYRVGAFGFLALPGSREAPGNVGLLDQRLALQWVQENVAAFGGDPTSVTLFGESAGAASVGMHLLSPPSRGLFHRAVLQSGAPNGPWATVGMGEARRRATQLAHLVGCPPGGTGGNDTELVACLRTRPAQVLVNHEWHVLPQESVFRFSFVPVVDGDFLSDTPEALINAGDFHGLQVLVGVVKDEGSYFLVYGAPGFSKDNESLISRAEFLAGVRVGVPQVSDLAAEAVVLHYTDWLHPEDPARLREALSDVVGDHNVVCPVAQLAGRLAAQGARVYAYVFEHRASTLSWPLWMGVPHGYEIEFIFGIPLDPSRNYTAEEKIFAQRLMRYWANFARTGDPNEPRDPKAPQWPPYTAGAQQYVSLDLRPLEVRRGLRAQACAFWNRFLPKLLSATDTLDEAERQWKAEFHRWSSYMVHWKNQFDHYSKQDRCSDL

target: Acetylcholinesterase (Homo sapiens, UniProt P22303); assay: ASSAY_NAME: ChEBML_28147 DESCRIPTION: Reversible inhibition of Human AchE

SMILES	pIC50
CC[N+](C)(CC)CCSC(N=O)C(=O)c1ccc(OC)cc1 (centres undefined)	< 3.00
COc1ccc(C(=O)C(N=O)SCC[N+](C)(C)C)cc1 (centres undefined)	< 3.00
CN(C)CCSC(N=O)C(=O)c1ccc(Cl)cc1 (centres undefined)	< 3.00
CC[N+](C)(CC)CCSC(N=O)C(=O)c1ccc(C#N)cc1 (centres undefined)	< 3.00
C[N+](C)(C)CCSC(N=O)C(=O)c1ccc(F)cc1 (centres undefined)	< 3.00
CCN(CC)CCSC(N=O)C(=O)c1ccc(Cl)cc1 (centres undefined)	3.28
Cc1ccc(C(=O)C(N=O)SCC[N+](C)(C)C)cc1 (centres undefined)	< 3.00
CCN(CC)CCSC(N=O)C(=O)c1ccc(Br)cc1 (centres undefined)	3.68
CN(C)CCSC(N=O)C(=O)c1ccc(Br)cc1 (centres undefined)	3.15
CN(C)CCCSC(N=O)C(=O)c1ccc(Br)cc1 (centres undefined)	< 3.00
CCN(CC)CCSC(N=O)C(=O)c1ccc(OC)cc1 (centres undefined)	3.59
Cc1ccc(C(=O)C(N=O)SCCN(C)C)cc1 (centres undefined)	< 3.00
CC(C)N(CCSC(N=O)C(=O)c1ccc(Cl)cc1)C(C)C (centres undefined)	3.48
C[N+](C)(C)CCSC(N=O)C(=O)c1ccc(Br)cc1 (centres undefined)	< 3.00
CCN(CC)CCSC(N=O)C(=O)c1ccccc1 (centres undefined)	< 3.00
CCN(CC)CCSC(N=O)C(=O)c1ccc(C#N)cc1 (centres undefined)	3.74
CC[N+](C)(CC)CCSC(N=O)C(=O)c1ccc(Cl)cc1 (centres undefined)	< 3.00
COc1ccc(C(=O)C(N=O)SCCN(C)C)cc1 (centres undefined)	< 3.00
CC[N+](C)(CC)CCSC(N=O)C(=O)c1ccc(F)cc1 (centres undefined)	3.14

pIC50: −log10 of the molar value.
